System: HCT-116/VM46 human colon carcinoma cells
Experiment: In vitro cytotoxicity, XTT assay, HCT-116/VM46 cells (teniposide-resistant, multidrug resistance phenotype)
Format: cell-based
Conditions: for fold resistance relative to HCT116 cells: HCT-116/VM46 relative to HCT116, value in parenthesis, 4320 min; for IC50: read-out: IC50 HCT-116/VM46, HCT-116/VM46, teniposide-resistant, multidrug resistance phenotype, XTT, 72 hours, 37° C.

C=C1C2=CC(=O)[C@]3(C)[C@@H](OC(=O)C(F)Cl)C[C@H]4OC[C@@]4(OC(C)=O)[C@H]3[C@H](OC(=O)c3ccccc3)[C@](O)(C[C@@H]1OC(=O)[C@H](O)[C@@H](NC(=O)c1ccccc1)c1ccccc1)C2(C)C (some centres unmarked) [Example 3, 7-O-chlorofluoroacetyl-10-desacetoxy-11,12-dihydrotaxol-10,12(18)-diene]
fold resistance relative to HCT116 cells: 51 fold | IC50: 1950 nM

CC(=O)O[C@@]12CO[C@@H]1C[C@H](OC(=O)C(F)Cl)[C@@]1(C)C(=O)CC3=C(C)[C@@H](OC(=O)[C@H](O)[C@@H](NC(=O)c4ccccc4)c4ccccc4)C[C@@](O)([C@@H](OC(=O)c4ccccc4)[C@H]21)C3(C)C (some centres unmarked) [Example 4, 7-O-chlorofluoroacetyl-10-desacetoxytaxol]
fold resistance relative to HCT116 cells: 158 fold | IC50: 1260 nM

C=C1C2=CC(=O)[C@@]3(C)[C@H]([C@H](OC(=O)c4ccccc4)[C@](O)(C[C@@H]1OC(=O)[C@H](O)[C@@H](NC(=O)c1ccccc1)c1ccccc1)C2(C)C)[C@]1(OC(C)=O)CO[C@@H]1C[C@@H]3O [Example 9, 10-Desacetoxy-11,12-dihydrotaxol-10,12(18)-diene]
fold resistance relative to HCT116 cells: 23 fold | IC50: 860 nM

C=C1C2=CC(=O)[C@]3(C)[C@H](O)C[C@H]4OC[C@@]4(OC(C)=O)[C@H]3[C@H](OC(=O)c3ccccc3)[C@](O)(C[C@@H]1OC(=O)[C@H](O)[C@@H](NC(=O)c1ccccc1)c1ccccc1)C2(C)C [Example 16, 10-Desacetoxy-11,12-dihydro-7-epitaxol-10,12(18)-diene]
fold resistance relative to HCT116 cells: 21 fold | IC50: 855 nM
